Our source for the solubility values is patent US6900343B1, “Method for the purification of metallocenes” (Basell Polyolefine GmbH, priority 1998, dated 2005).

The data set can be described thus: Solubility comparison in toluene at room temperature.

Take `CC1=Cc2c(ccc3ccccc23)[C]12[Si](C)(C)[C]1(C(C)=Cc3c1ccc1ccccc31)[Zr]2([Cl])[O]c1cc(C)ccc1C(C)C` (stereo not shown) [Compound 3, Dimethylsilanediylbis(2-methyl-4,5-benzoindenyl)zirconium Monochloride mono(2-isopropyl-5-methylphenoxide)]: the solubility result is given as “about 18 mmol/l”.
